The numbers were not newly measured in patent publication US20120157377A1, “METHODS TO ENHANCE NIGHT VISION AND TREATMENT OF NIGHT BLINDNESS” (priority 2012, published 2012), which cites them from elsewhere.

The subject of this series is MCF-7 human breast cancer cells. To be noted: cited from earlier work.

For the substance insulin, the “increase of the cytotoxic effect of methotrexate by insulin” value is given as “up to 10,000 fold”.
